{"source": "patent US8833363B2", "about": "“Ejection liquid, ejection method, method for forming liquid droplets, liquid ejection cartridge and ejection apparatus” (Canon Kabushiki Kaisha, priority 2004, dated 2014)", "type": "physicochemical", "settings": "albumin in PBS, as protein concentration increases, FIG. 6", "method": "Before describing Examples, an ejection amount when a solution containing a protein alone is ejected in accordance with the thermal inkjet system will be shown in order to facilitate the understanding why it is difficult to eject a protein solution. A solution of albumin in PBS was prepared as the protein solution in various concentrations. Each of the solutions was ejected by a liquid ejection apparatus, which was modified from a bubble-jet printer (trade name: PIXUS 950i manufactured by Canon Inc.) so as to collect the solution. The ejection amount (the amount of a single liquid droplet) of each albumin solution is indicated based on that of pure water (ejected in the same manner) being 100%.\nSolutions containing insulin in a concentration of 1.0 mg/mL with and without an additive(s) were ejected in accordance with the thermal inkjet system. The ejection amount of a solution and its reproducibility were evaluated in the cases where an additive was added and not added to the solution.\nEvaluation was performed by using • a solution of 1.0 mg/mL insulin containing 1.0 mg/mL proline and 1.0 mg/mL TWEEN 80 (Ins/Pro/Tw); • a solution of 1.0 mg/mL insulin containing 1.0 mg/mL proline (Ins/Pro); • a solution of 1.0 mg/mL insulin containing 1.0 mg/mL TWEEN 80 (Ins/Tw); and • a solution of 1.0 mg/mL insulin alone. […]"}
{"substance": "albumin: solution of albumin in PBS prepared in various concentrations (Reference Example 1)", "values": [{"measurement": "ejection amount (single liquid droplet) relative to pure water (100%)", "result": "gradually reduces toward zero"}]}
